# Data reported in PubChem BioAssay AID1766 (National Center for Advancing Translational Sciences (NCATS), 2009).
# Several values for one entry are separate records, joined by “and”; a condition that tells them apart may be missing. Identical values can stand only once. The entries are a selection whose mix differs from that of the whole data set. Results filed as inconclusive are left out. Activity calls are given as the source filed them. The call rests on the fitted dose curve; in most records, active means well fitted curve in the direction sought with a large enough effect in the polarisation (not every such curve was filed as active); inconclusive means small, poorly fitted or top-dose-only effect, or effect the other way, or a change in a side signal; inactive means no such curve, though single readings can be large or run the other way; the % refers to the polarisation.
# Test: qHTS Assay for Inhibitors Targeting the Menin-MLL Interaction in MLL Related Leukemias: Competition With Fluorescein Labeled MLL-derived Peptide; further: % of control where 0% means no effect
# Conditions: Fluorescence polarization, fluorescein-MLL peptide displacement from menin
# [1] = at 61.4 µM (top of the series) unless noted
compound,measurement,setting,value
COc1ccc2nc(NP(=O)(c3ccccc3)c3ccccc3)sc2c1,FP activity change,[1],inactive: -0.343%
Cc1cc(=O)[nH]c(N[N+](=O)[O-])n1,FP activity change,[1],inactive: -0.424%
CCN(CC)CCCOC(=O)C(O)(c1ccccc1)c1ccccc1,FP activity change,[1],inactive: 0.73%
O=C(OC1CN2CCC1CC2)C12CC3CC(CC(C3)C1)C2 (stereo unspecified),FP activity change,[1],inactive: -0.0327%
Cc1c2c(nc3ccccc13)SC(C(Cl)Cl)C2 (stereo unspecified),FP activity change,[1],inactive: 3.95%
Cc1cc(C)cc(OP(C)(N)=O)c1 (stereo unspecified),FP activity change,[1],inactive: 2.16%
O=[N+]([O-])c1cc([N+](=O)[O-])c(-c2ccn[nH]2)s1,FP activity change,[1],inactive: -1.74%
COc1ccc(OP(C)(=O)Nc2cccc(F)c2)cc1 (stereo unspecified),FP activity change,[1],inactive: -2.42%
CCN(CC)C(=S)SC(NC=O)C(Cl)(Cl)Cl (stereo unspecified),FP activity change,[1],inactive: 2.31%
COc1ccccc1OP(C)(=O)Nc1cc(Cl)ccc1C (stereo unspecified),FP activity change,[1],inactive: 1.02%
CC(C)NC(=O)NP(=O)(Oc1ccccc1)Oc1ccccc1,FP activity change,[1],inactive: -1.94%
Cc1ccc(NP(C)(=O)Oc2ccccc2)c(C)c1 (stereo unspecified),FP activity change,[1],inactive: 6.47%
CC(C)c1ccc(OP(=O)(Nc2ccccn2)Oc2ccccc2F)cc1 (stereo unspecified),FP activity change,[1],inactive: 6.77%
COc1ccccc1OP(C)(=O)Nc1ccc(C)cc1 (stereo unspecified),FP activity change,[1],inactive: -0.152%
ClCCSc1nnc(-c2cccnc2)o1,FP activity change,[1],inactive: 5.57%
CCOC(=O)c1ccc(NP(C)(=O)Oc2ccccc2)cc1 (stereo unspecified),FP activity change,[1],inactive: 6.98%
Cc1ccc2nc3c(c(C)c2c1)CC(C(Cl)Cl)S3 (stereo unspecified),FP activity change,[1],inactive: 1.96%
O=[N+]([O-])c1ccc2c(c1)C=Nc1ccccc1O2,FP activity change,[1],inactive: -2.17%
O=C(O)C(O)(c1ccccc1)c1ccccc1,FP activity change,[1],inactive: 1.13%
Cc1cccc(C)c1OP(C)(N)=O (stereo unspecified),FP activity change,[1],inactive: 1.14%
CC(C)(C)c1ccc(OP(C)(=O)Nc2ccc(SC(F)(F)F)cc2)cc1 (stereo unspecified),FP activity change,[1],inactive: 1.39%
Cc1ccc(OP(=O)(Nc2ccc([N+](=O)[O-])cn2)Oc2ccc(C)cc2)cc1,FP activity change,[1],inactive: 3.52%
O=C(O)C1(O)c2ccccc2-c2ccccc21,FP activity change,[1],inactive: 1.04%
C[As](=O)(O)c1cccc(C(=O)O)c1,FP activity change,[1],inactive: -4.84%
O=[As](O)(c1ccc(O)cc1)c1ccccc1O,FP activity change,[1],inactive: 1.02%
CC1=NCCc2c1[nH]c1ccccc21.O=[N+]([O-])c1cc([N+](=O)[O-])c(O)c([N+](=O)[O-])c1,FP activity change,[1],inactive: 9.32%
O=[N+]([O-])c1ccc2c(c1)nnn2O,FP activity change,[1],inactive: -1.16%
CN(C(=O)Cc1ccccc1)[C@@H]1CC[C@]2(CCCO2)C[C@H]1N1CCCC1,FP activity change,[1],inactive: 2.99% and inactive: 4.07%
CCOP1(=S)c2c(C)nn(CCC#N)c2N=C(c2ccc(F)cc2)N1C (stereo unspecified),FP activity change,[1],inactive: 1.98%
O=[N+]([O-])OCC(CO[N+](=O)[O-])(CO[N+](=O)[O-])CO[N+](=O)[O-],FP activity change,[1],inactive: 0.415%
O=[N+]([O-])CC(O)c1ccc([N+](=O)[O-])cc1 (stereo unspecified),FP activity change,[1],inactive: 0.0665%
NC(=O)Nc1ccc([As](=O)(O)O)cc1,FP activity change,at 24.8 µM (top of the series),inactive: -6.24%
same,FP activity change,at 61.4 µM (top of the series),inactive: 3.22%
Nc1ccccc1[As](=O)(O)c1ccccc1,FP activity change,[1],inactive: 3.24%
O=C(O)COc1ccc([As](=O)(O)O)cc1[N+](=O)[O-],FP activity change,[1],inactive: -27.7%
O=P(Nc1nccs1)(c1ccccc1)c1nc2ccccc2s1 (stereo unspecified),FP activity change,[1],inactive: 3.88%
O=[N+]([O-])c1cccc([N+](=O)[O-])c1,FP activity change,[1],inactive: 1.31%
O=P(Nc1nccs1)(Oc1ccccc1)Oc1ccccc1,FP activity change,[1],inactive: 1.43%
CCOP1(=S)c2c(C)nn(CCC#N)c2N=C(c2ccccc2F)N1C (stereo unspecified),FP activity change,[1],inactive: 0.333%
CCOP(=O)(Nc1cccc2ccccc12)OCC,FP activity change,[1],inactive: 3.6%
CCCOP(=S)(Nc1nc(N)cc(=O)[nH]1)OCCC,FP activity change,[1],inactive: 4.73%
Cc1ccc(C)c(NP(C)(=O)Oc2ccccc2)c1 (stereo unspecified),FP activity change,[1],inactive: 3.45%
Cc1ccc(NCCc2c([N+](=O)[O-])cc([N+](=O)[O-])cc2[N+](=O)[O-])cc1,FP activity change,[1],inactive: 1.06%
CP(=O)(Nc1cccc(Br)c1)Oc1ccccc1 (stereo unspecified),FP activity change,[1],inactive: 1.98%
Cc1cc(C)cc(OP(C)(=O)Nc2ccccn2)c1 (stereo unspecified),FP activity change,[1],inactive: 0.698%
CCOC(=O)c1ccc(NP(C)(=O)Oc2cc(C)cc(C)c2)cc1 (stereo unspecified),FP activity change,[1],inactive: 0.758%
Cc1cc(C)cc(OP(C)(=O)Nc2ccc(C)cc2C)c1 (stereo unspecified),FP activity change,[1],inactive: 3.9%
O=[As](O)(c1cccc(O)c1)c1cccc(O)c1,FP activity change,[1],inactive: 6.7%
Cc1cccc(OCC(=O)OC2CN3CCC2CC3)c1 (stereo unspecified),FP activity change,[1],inactive: 1.46%
COc1ccccc1OP(C)(=O)Nc1cccc(Br)c1 (stereo unspecified),FP activity change,[1],inactive: -3.09%
COc1cc(C(=O)NCC2(N3CCOCC3)CCCCC2)cc(Cl)c1OC(C)C,FP activity change,[1],inactive: 1.02%
O=[As](O)(O)c1cccnc1,FP activity change,[1],inactive: -2.5%
CN(C(=O)Cc1ccc(Cl)c(Cl)c1)[C@@H]1CC[C@]2(CCCO2)C[C@H]1N1CCCC1,FP activity change,[1],inactive: 2.65%
O=C(OC1CN2CCC1CC2)c1ccc(Cl)cc1 (stereo unspecified),FP activity change,[1],inactive: -5.3%
Cc1nc2ccc3ccccc3c2s1.O=[N+]([O-])c1cc([N+](=O)[O-])c(O)c([N+](=O)[O-])c1,FP activity change,[1],inactive: -0.749%
O=[As](O)(c1ccccc1Br)c1ccccc1Br,FP activity change,[1],inactive: 3.22%
CC(C)/C=N\N=C(\N)N[N+](=O)[O-],FP activity change,[1],inactive: 0.116%
CC(C)N(CCCl)C(C)C,FP activity change,[1],inactive: -4.08%
CC(C)(C)C(=O)NC(Sc1ncccn1)C(Cl)(Cl)Cl (stereo unspecified),FP activity change,[1],inactive: -7.11%
Clc1n[nH]nc1-c1nn[nH][15n]1,FP activity change,[1],inactive: 1.02%
CN(CCCl)Cc1cc(Cl)c(NC2=NCCN2)c(Cl)c1,FP activity change,[1],inactive: 2.77%
CCOP(=O)(Nc1ccc(C)cn1)OCC,FP activity change,[1],inactive: 4.39%
O=[N+]([O-])c1cc([N+](=O)[O-])c(-n2nnc3ccccc32)c([N+](=O)[O-])c1,FP activity change,[1],inactive: -0.642%
O=P1(Nc2ccccn2)COc2ccccc2OC1,FP activity change,[1],inactive: 4.99%
CCC1=CC2Cc3nc4ccc(Cl)cc4c(N)c3C(C1)C2 (stereo unspecified),FP activity change,[1],inactive: 2.5%
O=P1(Nc2ccc(Br)cn2)COc2ccccc2OC1,FP activity change,[1],inactive: 1.62%
Cc1ccc(OCC(=O)OC2CN3CCC2CC3)cc1 (stereo unspecified),FP activity change,[1],inactive: -4.19%
CP(=O)(Nc1ccc(SC(F)(F)F)cc1)Oc1ccccc1 (stereo unspecified),FP activity change,[1],inactive: 6.98%
Nc1cccc([As](=O)(O)c2ccccc2)c1,FP activity change,[1],inactive: 0.0348%
CCCOc1ccc(NP(C)(=O)Oc2ccc(Cl)cc2)cc1 (stereo unspecified),FP activity change,[1],inactive: -0.623%
O=P1(Nc2ncccn2)COc2ccccc2OC1,FP activity change,[1],inactive: 4.21%
COc1ccccc1OP(C)(=O)Nc1c(C)cccc1C (stereo unspecified),FP activity change,[1],inactive: 5.33%
CN1CCCCC1COC(=O)C1(O)c2ccccc2CCc2ccccc21 (stereo unspecified),FP activity change,[1],inactive: 2.22%
O=C(/C=C/c1ccccc1)OC1CN2CCC1CC2 (stereo unspecified),FP activity change,[1],inactive: -0.359%
O=[N+]([O-])c1cc([N+](=O)[O-])c(Nc2nnnn2CCO)c([N+](=O)[O-])c1,FP activity change,[1],inactive: 7.58%
CN(C)C1(CNC(=O)c2ccc(S(C)(=O)=O)cc2)CCCCC1,FP activity change,[1],inactive: 3.12%
COc1cc(C2NCCC3(OCCO3)C2(C)C)cc(OC)c1OC.O=[N+]([O-])c1cc([N+](=O)[O-])c(O)c([N+](=O)[O-])c1 (stereo unspecified),FP activity change,[1],inactive: 1.86%
CC1CCC(C(C)C)C(OP(=O)(Nc2ccccn2)c2ccccc2)C1 (stereo unspecified),FP activity change,[1],inactive: -3.51%
Cc1ccc(C(=O)OC2CN3CCC2CC3)cc1 (stereo unspecified),FP activity change,[1],inactive: -4.74%
Cc1nn(-c2ccccc2)c2c1P(=O)(N1CCOCC1)N(C)C(c1ccccc1)=N2 (stereo unspecified),FP activity change,[1],inactive: -2.46%
Nc1ccc([As](=O)(O)c2ccc([N+](=O)[O-])cc2)cc1,FP activity change,[1],inactive: -0.929%
C(Cc1nn[nH]n1)Cc1nn[nH]n1,FP activity change,[1],inactive: -0.801%
O=C(OC1CN2CCC1CC2)c1cccc(Cl)c1 (stereo unspecified),FP activity change,[1],inactive: 4.89%
O=[N+]([O-])c1ccc(O)c(/C=N/Nc2ccc([N+](=O)[O-])cc2[N+](=O)[O-])c1,FP activity change,[1],inactive: -0.0049%
CC(=O)NC(SC(=S)N(C)C)C(Cl)(Cl)Cl (stereo unspecified),FP activity change,[1],inactive: 1.43%
O=[N+]([O-])c1ccc(OP2(=O)COCCO2)cc1 (stereo unspecified),FP activity change,[1],inactive: 2.29%
O=[N+]([O-])c1ncn(CCn2cnc([N+](=O)[O-])n2)n1,FP activity change,[1],inactive: 2.28%
Cc1cc(-c2cccc3ccccc23)c(C)cn1.O=[N+]([O-])c1cc([N+](=O)[O-])c(O)c([N+](=O)[O-])c1,FP activity change,[1],inactive: 4.21%
O=[As](O)(c1ccccc1)c1ccc(O)cc1,FP activity change,[1],inactive: -2.56%
C[C@H]1OP(=O)(Oc2ccccc2)[C@H](O)[C@H](O)[C@H]1N=[N+]=[N-] (stereo partly specified),FP activity change,[1],inactive: 3.48%
CN(C)CCOC(=O)C(O)(c1ccccc1)C1CCCCC1 (stereo unspecified),FP activity change,[1],inactive: -0.824%
O=P(Nc1nc2ccccc2s1)(c1ccccc1)c1ccccc1,FP activity change,[1],inactive: -2.71%
CN(C(=O)Cc1ccccc1)[C@H]1CC[C@@]2(CCCO2)C[C@@H]1N1CCCC1,FP activity change,[1],inactive: -15%
COc1ccc(NP(C)(=O)Oc2ccccc2OC)cc1 (stereo unspecified),FP activity change,[1],inactive: -2.1%
COc1ccc(OP(C)(=O)Nc2cccc(Br)c2)cc1 (stereo unspecified),FP activity change,[1],inactive: 0.687%
O=P(Nc1ccccn1)(c1ccc(Br)cc1)c1ccc(Br)cc1,FP activity change,[1],inactive: 2.38%
CN(C)C1(CNC(=O)c2ccc(Cl)c(S(N)(=O)=O)c2)CCCCC1,FP activity change,[1],inactive: -2.15%
CCN(CCCl)Cc1ccccc1C,FP activity change,[1],inactive: -3.09%
Cc1ccccc1NP(C)(=O)Nc1ccccc1C,FP activity change,[1],inactive: 6.56%
CP(=O)(Nc1ccc2c(c1)OCCO2)Oc1ccccc1 (stereo unspecified),FP activity change,[1],inactive: 0.917%
CCOP(C)(=S)SCC(=O)NC(C)(CC)C(=O)O (stereo unspecified),FP activity change,[1],inactive: 3.91%
